US11306122B2, “Compositions and methods of inhibiting the binding of plasma IgG autoantibodies to serotonin 2A receptor” (United States Government As Represented By The Department …, priority 2019, dated 2022)

Test system: N2A mouse neuroblastoma cells
Experiment: Acute N2A neurite retraction induced by schizophrenia plasma autoantibodies
Type: cell-based
Experimental: Methods: Plasma from five older adults with chronic schizophrenia and eight age-matched patients having another neuropsychiatric, immune or metabolic disorder was subjected to Protein-A affinity chromatography to obtain IgG autoantibodies. Mean neurite retraction (5 minutes) or cell survival (24 hours) was determined in mouse N2A neuroblastoma cells incubated with autoantibodies in the presence or absence of specific antagonists of the Gq/11/PLC/IP3R signaling pathway, Gi-coupled, beta-arrestin2-directed pathways, or LY379268.
Acute neurite retraction assay. Percent of basal neurite length in N2A cells expressing one or more proximally-located dendrite-like process was determined after interval exposure to test substances (Zimering M B, J Endocrinol Diabetes. 2018; 5(2): 10).
A twenty nanomolar concentration of protein-A eluate fraction of plasma from Pt 1 with schizophrenia was incubated with N2A cells in the presence or absence of the indicated concentration of each Gq/11, GPCR antagonist. Results are the mean+/−SD of two experiments.
A forty nanomolar concentration of plasma autoantibodies (AutoAB) from Pt 1 or Pt, schizophrenia, was incubated in the presence or absence of the indicated concentration of RhoA/Rho kinase (ROCK) inhibitor, or individual antagonists of the Gq11/PLC/IP3R signaling pathway. […]

CCCN1CCC[C@@H]2Cc3n[nH]cc3C[C@H]21 [quinpirole]
sensitization of N2A cells to SCZ autoantibody- or DOI-induced neurite retraction: did not sensitize
